Bioassay records: PubChem, ICCB-Longwood Screening Facility, Harvard Medical School
Sa growth inh: inhibitors of Staphylococcus aureus growth at 42 °C | S. aureus RN4220 growth, OD600, 20 h; hits give low values | relative growth, % (test concentration not listed) | 0.53% of 170,000 active;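 active = relative growth at most 50% at the other temperature and 20+ points below 30 °C, or under 10% at both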
HCMV NEC inh: disrupts HCMV UL50-UL53 complex binding; HTRF UL50-UL53 interaction, normalized percent inhibition; inhibition, % (concentration not given with the values); 0.15% of 190,000 active; in the data active = inhibition above about 27%, passing the limit was not always enough
GIV-Gai inh: GIV-Galpha-i interaction inhibition. AID 1224905. actives 0.42% (n = 210,000). percent of control (FP), % (test concentration not listed). Galpha-i3/FITC-GIV peptide fluorescence polarization, 90 min; stronger effect = lower value; scaled: aluminum fluoride 0%, vehicle 100%;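 active = replicate mean at 85% of control or lower, very high polarization wells dropped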;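 also: wells of about 15 µL received 100 nL stock; the first replicate is given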
GIV-Gai FP conf: confirmation of inhibitors of GIV binding to rat Galpha-i3. shares compounds with GIV-Gai inh. fluorescence polarization, mP at 100 µM. AID 1259350. 38% of 580 active. FITC-GIV peptide binding to Galphai3, fluorescence polarization; hits give low values;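 active = inhibition score of 15 or more, meaning 100 minus mean polarization as percent of control over three replicates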;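 also: lower mP means peptide displaced from Galphai3 so more inhibition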
GIV Gai AS conf: GIV-Galpha-i3 inhibition, AlphaScreen confirmation; shares compounds with GIV-Gai inh; AlphaScreen Galphai3-GIV binding, purified proteins, 90 min; hits give low values; AlphaScreen counts at 100 µM; 39% of 580 active;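 active = inhibition score at or above a set limit, where the score is 100 minus the three-replicate mean percent of control signal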
Active calls of the source: *; nt = no result. Hits are enriched below; roughly 0.7% of the tested compounds scored in any of these assays.

A first look (5 entries):
no.	canonical_smiles	HCMV NEC inh	Sa growth inh	GIV-Gai FP conf
1	O=C1c2ccccc2C(=O)C1C(c1ccccc1)C1C(=O)c2ccccc2C1=O	nt	109.2	54.1
2	O=C(O)c1cnc(N2CCOCC2)c(NS(=O)(=O)c2ccccc2)c1	-29.2	nt	35.8*
3	O=C(O)c1cnc(N2CCC(Cc3ccccc3)CC2)c(NS(=O)(=O)c2ccccc2)c1	-23.0	nt	nt
4	COc1cccc2c1OC(c1ccc(F)c(F)c1)N1N=C(c3cccnc3)CC21 (stereo not drawn)	nt	nt	nt
5	O=C(O)c1cccc(NC(=O)c2cccc(S(=O)(=O)Nc3cccc(C(=O)O)c3)c2)c1	nt	102.9	nt

no.	GIV-Gai inh	GIV Gai AS conf
1	76.0*	5972*
2	49.0*	30970
3	99.4	nt
4	111.2	nt
5	95.2	nt

The whole of this part (from the top)
no.	canonical_smiles	HCMV NEC inh	Sa growth inh	GIV-Gai FP conf
1	O=C1c2ccccc2C(=O)C1C(c1ccccc1)C1C(=O)c2ccccc2C1=O	nt	109.2	54.1
2	O=C(O)c1cnc(N2CCOCC2)c(NS(=O)(=O)c2ccccc2)c1	-29.2	nt	35.8*
3	O=C(O)c1cnc(N2CCC(Cc3ccccc3)CC2)c(NS(=O)(=O)c2ccccc2)c1	-23.0	nt	nt
4	COc1cccc2c1OC(c1ccc(F)c(F)c1)N1N=C(c3cccnc3)CC21 (stereo not drawn)	nt	nt	nt
5	O=C(O)c1cccc(NC(=O)c2cccc(S(=O)(=O)Nc3cccc(C(=O)O)c3)c2)c1	nt	102.9	nt
6	O=C(Nc1cccc(C(=O)Nc2ccc(S(=O)(=O)O)c3cc(S(=O)(=O)O)cc(S(=O)(=O)O)c23)c1)Nc1cccc(C(=O)Nc2ccc(S(=O)(=O)O)c3cc(S(=O)(=O)O)cc(S(=O)(=O)O)c23)c1	-42.5	nt	33*
7	O=C(c1ccccc1)c1cccc2c1NCC2	-11.3	110.3	64.9
8	O=C(O)c1ccccc1C(=O)c1ccccc1	1.7	nt	nt
9	Cc1cccc(NC(=O)C(Cc2c[nH]c3ccccc23)NC(=O)OC(C)(C)C)c1C (stereo not drawn)	nt	nt	nt
10	Nc1nnn2c(=O)c3cccc4cccc(c43)c12	-108.3	87.1	79
11	O=c1c2cccc3cccc(c32)c2nc3ccc4ccccc4c3n12	nt	nt	nt
12	CCCOc1ccc(CN2CCCC2c2cc(C(C)C)on2)cc1 (stereo not drawn)	nt	nt	nt
13	Cc1ccc(C(=O)Nc2nccs2)cc1I	6.8	134.9	nt
14	O=C1CCCc2nc(N3CCN(c4ccccc4F)CC3)ncc21	-27.9	nt	68.1
15	Fc1ccc(CN2CCc3nc(N4CCN(c5ccccc5F)CC4)ncc3C2)c(F)c1	nt	98.9	nt

no.	GIV-Gai inh	GIV Gai AS conf
1	76.0*	5972*
2	49.0*	30970
3	99.4	nt
4	111.2	nt
5	95.2	nt
6	0.1*	3059*
7	81.0*	29262
8	nt	nt
9	116.5	nt
10	87.5	19934*
11	111.9	nt
12	95.9	nt
13	112.2	nt
14	82.3*	44943
15	104.5	nt

Continued:
no.	canonical_smiles	HCMV NEC inh	Sa growth inh	GIV-Gai FP conf
16	Cn1c(=O)c2sccc2n2c(SCc3cccc(Br)c3)nnc12	-6.2	nt	nt
17	O=C(CCS(=O)(=O)c1cc(Br)cc2c1N(C(=O)C1CC1)CC2)Nc1cc(F)ccc1F	3.1	98.9	nt
18	C=CCNc1nc2c([nH]c3ccccc32)s1	nt	61.7	56.3*
19	C=CCSc1nnc2c(n1)[nH]c1ccccc12	-34.4	89.1	nt
20	COc1ccc(-n2c(-c3ccc(Br)cc3)cn3c4c(=O)n(C)c(=O)n(C)c4nc23)cc1	nt	nt	nt
21	O=c1cc(Cn2nc3c(-c4nc(-c5ccccc5)no4)cccn3c2=O)nc2ccccn12	nt	nt	42.4*
22	CCOC(=O)Cn1nc2c(-c3nc(-c4ccc(Cl)cc4)no3)cccn2c1=O	nt	nt	nt
23	Oc1sc(-c2ccccc2)cc1C=Nc1ccccc1	nt	95.9	74.4
24	CC(C)(C)N=Cc1cc(-c2ccccc2)sc1S	nt	11.8	nt
25	Cc1cccc(S(=O)Cc2ccc(C(=O)N3CCc4ccccc43)o2)c1 (stereo not drawn)	-11.6	101.0	nt
26	Cc1ccc2[nH]cc(C(O)CN3CCN(c4ccccc4F)CC3)c2c1 (stereo not drawn)	-6.7	nt	nt
27	CC(=O)c1c2c3c(c(Br)ccc3n(C)c1=O)C(=O)c1ccccc1-2	nt	nt	nt
28	Cn1c(=O)c(C(=O)CS(=O)(=O)O)c2c3c(c(Br)ccc31)C(=O)c1ccccc1-2	nt	nt	62.5
29	CCC(C)C(=O)N1c2cc(C)c(C)cc2-c2c(ssc2=S)C1(C)C (stereo not drawn)	nt	nt	nt
30	Cc1cc2c(cc1C)N(C(=O)C(C)C)C(C)(C)c1ssc(=S)c1-2	nt	nt	68.1

no.	GIV-Gai inh	GIV Gai AS conf
16	96.6	nt
17	106.9	nt
18	87.4	13174*
19	102.6	nt
20	100.3	nt
21	89.6	27964
22	106.0	nt
23	84.0*	45653
24	111.2	nt
25	111.7	nt
26	106.4	nt
27	110.9	nt
28	84.2*	5202*
29	105.9	nt
30	92.8	45573

New compounds follow
no.	canonical_smiles	HCMV NEC inh	Sa growth inh	GIV-Gai FP conf
31	CCc1ccc(C(=O)c2c(N)c(C(=O)Nc3cccc(F)c3)c3ccccn23)cc1	0.6	nt	nt
32	CN(CCc1ccccn1)C(=O)c1cccc(C(F)(F)F)c1	-3.1	101.9	nt
33	Nc1nc2ccc(CCC(=O)O)cc2s1	2.0	110.8	60.1*
34	CCc1ccc2nc(N)sc2c1	nt	84.4	nt
35	O=C(NC1CCCC1)c1ccc2c(=O)n3c(nc2c1)CCCCC3	0.4	95.8	nt
36	O=c1[nH]cc(S(=O)(=O)N2CCc3ccccc3C2)c(=O)[nH]1	-17.8	nt	nt
37	O=C(N=Nc1c(O)[nH]c(=O)[nH]c1=O)c1ccccn1	-19.0	100.7	nt
38	O=C(N=Nc1c2ccccc2c2nc3no[nH]c3nc12)c1ccccc1O	-9.5	0.6*	66.1
39	NC(=O)CN1C(=O)Cc2ccccc2C1=O	75.7	nt	57.5*
40	O=C(O)CCN1C(=O)Cc2ccccc2C1=O	103.8	96.7	nt
41	Fc1ccc(OCc2nnc3sc(-c4cccc(F)c4)nn23)cc1	-7.0	nt	nt
42	CCCCN(CC)C(=O)C1CCCN(c2ccc(-c3ccccc3)nn2)C1 (stereo not drawn)	-30.7	nt	nt
43	Cc1cc(C)n2nc(CN(C(=O)CC(C)C)c3ccccc3)nc2n1	3.6	nt	70.6
44	CCCC(=O)N(Cc1nc2nc(C)cc(C)n2n1)c1ccccc1	-2.7	nt	nt
45	CC1CCc2[nH]nc(C(=O)NC3CC3)c2C1 (stereo not drawn)	nt	nt	nt

no.	GIV-Gai inh	GIV Gai AS conf
31	101.4	nt
32	nt	nt
33	56.8*	3278*
34	100.0	nt
35	108.6	nt
36	106.5	nt
37	105.3	nt
38	77.3*	12405*
39	62.5*	12845*
40	nt	nt
41	112.1	nt
42	99.3	nt
43	91.8	35999
44	107.9	nt
45	101.7	nt

(more compounds)
no.	canonical_smiles	HCMV NEC inh	Sa growth inh	GIV-Gai FP conf
46	COCCNCc1c(C(=O)O)c(C)n(Cc2ccccc2C)c1C	12.5	97.5	nt
47	CC1(C)CC(=O)C2=C(C1)Nc1ccccc1S2	-51.8	105.7	69.6
48	CC1(C)CC(=O)C2=C(C1)Nc1ccccc1NC2c1ccccc1F (stereo not drawn)	1.1	nt	nt
49	CC(C)C(C(=O)O)N1C(=O)/C(=C/c2ccccc2)SC1=S (stereo not drawn)	-71.9	nt	nt
50	O=C(O)C(c1ccccc1)N1C(=O)/C(=C/c2ccncc2)SC1=S (stereo not drawn)	nt	112.8	76
51	COc1ccc(NC(=O)c2sc3nc4c(c(-c5ccco5)c3c2N)CCCC4)cc1	nt	nt	65.1
52	COc1ccc(NC(=O)c2sc3nc4c(c(-c5ccco5)c3c2N)CCCCC4)cc1	nt	nt	nt
53	Cc1ccc(C2=NN3C(C2)c2ccccc2OC3c2ccc(OC(=O)c3ccccc3)cc2)cc1 (stereo not drawn)	-17.9	nt	nt
54	Cn1c(=O)n(CCC(=O)N2CCCC2)c(=O)c2cc(S(=O)(=O)NC(C)(C)C)ccc21	nt	nt	nt
55	CCCCCCC(=O)Nc1cc2nc3[nH]c(=O)n(C)c(=O)c3nc2cc1C	-64.1	nt	nt
56	CCC(=O)Nc1cc2nc3[nH]c(=O)n(C)c(=O)c3nc2cc1C	-162.5	nt	45.6*
57	CN(C)c1ncncc1N1CCC(C(=O)NC2CCCC2)CC1	nt	nt	nt
58	Clc1ccc(N2Cc3ccccc3C2)cc1	-10.4	102.8	nt
59	Cc1cc(C(=O)CSc2nncn2C)c(C)n1CC1COc2ccccc2O1 (stereo not drawn)	-23.0	84.0	nt
60	COc1cccc(-c2nc(CS(=O)(=O)CC(=O)NC3CCCC(C)C3C)c(C)o2)c1 (stereo not drawn)	nt	103.8	nt
61	O=c1c2cc3c(cc2nc(SCc2nc(-c4cccc(Br)c4)no2)n1C1CC1)OCO3	nt	nt	nt

no.	GIV-Gai inh	GIV Gai AS conf
46	104.4	nt
47	77.7*	61627
48	102.8	nt
49	nt	nt
50	79.8*	50305
51	83.8*	55254
52	106.0	nt
53	98.6	nt
54	100.8	nt
55	100.3	nt
56	21.1*	34033
57	104.2	nt
58	102.1	nt
59	nt	nt
60	104.1	nt
61	98.4	nt
